# Patent US11702403B2, “EAAT2 activators and methods of using thereof” (OHIO STATE INNOVATION FOUNDATION, priority 2018, dated 2023)
# Key:
# human EAAT2 = experiment: EAAT2 protein levels in PA-EAAT2 cells by Western blot; assay type: cell-based; conditions: 24 hr, EAAT2 protein relative to DMSO
# Description: Compounds were evaluated in PA-EAAT2 cells, a primary astrocyte stably expressing human EAAT2 mRNAs (Kong et al., J Clin Invest. 2014:1255-67). Cells were treated with compound at 0.0375, 0.075, 0.15, 0.3, 0.6, 1.25, 2.5, 5, 10 μM for 24 hr and then harvested for measuring EAAT2 protein levels by Western blot analysis.
# EAAT2 = EAAT2 protein levels in forebrain gliosomes of wild-type FVB/NJ mice by Western blot; assay type: in vivo; conditions: 40 mg/kg, normalized to flotilin
# Description: Mice were treated with compound at 40 mg/kg (or as depicted) and forebrains were harvested for the gliosome preparation 24 hr (or as described) post-treatment. FIG. 2A: Western blots show dose-dependent increase of EAAT2 protein levels. FIG. 2B: Time-dependent fold increase in EAAT2 protein expression in response to compound treatment at 4 hours (1.54±0.13) and 24 hours (1.98±0.19) post-treatment. Quantification of EAAT2 expression time course (normalized to flotilin; n=4/group). Data represented as mean SEM and analyzed using one-way ANOVA with Tukey post-hoc test. *p<0.05, **p<0.01. FIG. 2C: Compound treatment enhances CA3-CA1 LTP in the hippocampus. Mice were treated with vehicle or compound for seven days and acute hippocampal sections were collected for LTP recordings. […] Data represented as mean SEM analyzed using one-way ANOVA with Bonferroni post-hoc tests. Statistical significance denoted as ***p<0.001.
# Wild-type FVB/NJ mice (3-4 months old) were treated orally with compound 100 at 1, 2.5, 5, 10, 20, 40 mg/kg. At 24 hours post-treatment, mice were euthanized and forbrains were harvested. Gliosomes (astrocytic processes) were then isolated for measuring EAAT2 protein levels by Western blot analysis. […] This induction could be seen as early as 4 hours post-treatment (FIG. 2B). […] Acute hippocampal slices were then collected and assessed for changes in long-term potentiation (LTP).
smiles,measurement,setting,value
"CN(C)CCn1nc(-c2ccccn2)ccc1=O [Compound 100, 2-(2-(dimethylamino)ethyl)-6-(pyridin-2-yl)pyridazin-3(2H)-one]",Fold increase for EAAT2 at indicated concentration (maximum activity),human EAAT2,2.3 ± 0.3 fold
same,fold increase in EAAT2 protein expression,EAAT2; 4 hours post-treatment,1.54±0.13 fold
same,fold increase in EAAT2 protein expression,EAAT2; 24 hours post-treatment,1.98±0.19 fold
